Assay results: PubChem BioAssay AID2716 (Broad Institute, 2010)
This is a selection; strong and weak results do not stand in their true shares. Some tests of the compounds listed are not included; inactive here does not mean inactive elsewhere. Activity calls are given as the source filed them.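 Rule for the calls: active = every valid replicate shows activation above 250% relative to neutral control wells; inactive = the rest, any valid replicate at or below 250%.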

Assay: restored growth of temperature-sensitive Mot1-301 yeast – S. cerevisiae, ATP luminescence, 38.5C, SUMOylation pathway inhibitor project, primary screen (AID 2716);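 note: OY570 slx delta 5 strain wells were the positive control but not used for scaling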
Details: S. cerevisiae Mot1-301 growth rescue, at 18.8 µM, active compounds read high, percent above DMSO median, 100 means doubled

| Compound | growth rescue |
| --- | --- |
| CN1[C@@H]2CC[C@H]1CC(OC(=O)C(O)(c1ccccc1)c1ccccc1)C2 (stereo partly drawn) | inactive: 21.5% |
| Cc1ccc(C(=O)NCC2(N3CCCCC3)CCCCC2)cc1 | inactive: 53.1% |
| CC(C)N1C(=O)CC2(CCN(CCOC(=O)C(O)(c3ccccc3)c3ccccc3)CC2)C1=O | inactive: 134% |
| COc1cc(SC)ccc1C(=O)NCC1(N(C)C)CCCCC1 | inactive: -2.18% |
| CCN(CC)CC(C)C(C)OC(=O)C(O)(c1ccccc1)c1ccccc1 (stereo not drawn) | inactive: 50.5% |
| CN(C)C1CCCC1OC(=O)C(O)(c1ccccc1)c1ccccc1 (stereo not drawn) | inactive: 3.42% |
| CN(C)c1ccc(C(=O)NCC2(N(C)C)CCCCC2)cc1 | inactive: 1.97% |
| Cc1ccccc1C(=O)NCC1(N2CCCCC2)CCCCC1 | inactive: 46.7% |
| O=C(NCC1(N2CCCCC2)CCCCC1)c1cccc(Br)c1 | inactive: -2.6% |
| Cc1cc(C(=O)NCC2(N3CCCCC3)CCCCC2)ccc1[N+](=O)[O-] | inactive: 84.1% |
| CCN1CCCC(OC(=O)C2(O)c3ccccc3C=Cc3ccccc32)C1 (stereo not drawn) | inactive: -6.14% |
| COc1ccc(C(=O)NCC2(N(C)C)CCCCC2)cc1 | inactive: 198% |
| O=C(NCC1(N2CCCCC2)CCCCC1)c1cc(F)c(F)cc1Cl | inactive: 3.53% |
| C=CCN1CCN(CCOC(=O)C(O)(c2ccccc2)c2ccccc2)CC1 | inactive: 14% |
| COc1cc(C(=O)NCC2(N(C)C)CCCCC2)c([N+](=O)[O-])cc1OC | inactive: 9.94% |
| CN(C)C1(CNC(=O)c2ccc(Br)cc2)CCCCC1 | inactive: 3.2% |
| O=C(NCC1(N2CCCCC2)CCCCC1)c1cccc(Cl)c1 | inactive: -7.64% |
| COc1ccc(Cl)cc1C(=O)NCC1(N(C)C)CCCCC1 | inactive: -18.6% |
| COc1cccc(C(=O)NCC2(N3CCCCC3)CCCCC2)c1 | inactive: -7.55% |
| O=C(OC1CN2CCC1CC2)C(CO)(c1ccccc1)c1ccccc1 (stereo not drawn) | inactive: -6.65% |
| CN(C)c1cccc(C(=O)NCC2(N(C)C)CCCCC2)c1 | inactive: 4.12% |
| CC(C)Oc1ccc(C(=O)NCC2(N(C)C)CCCCC2)cc1 | inactive: -6.34% |
| COc1ccc(Br)c(C(=O)NCC2(N3CCCCC3)CCCCC2)c1 | inactive: 222% |
